Assay results reported in patent US20070232572A1, “Chemical derivatives as antitelomerase agents which bind specifically to the G-quadruplex DNA structures and their application as a specific anticancer agent” (priority 2003, published 2007).

test system: human telomerase (extract of A549 cells), oligonucleotide TSG4; assay: Antitelomerase activity by the TRAP-G4 assay; assay type: biochemical; settings: IC50 Taq/IC50 TRAP-G4 ratio
Description: The extract is stored at -80° C.

Row | SMILES | Inhibition of telomerase Selectivity factor
1 | Cc1ccc2cc(NC(=O)c3cccc(C(=O)Nc4ccc5c(ccc(C)[n+]5C)c4)c3)ccc2[n+]1C.[I-].[I-] [Example 7, bis[(1-methylquinaldinio-6-yl)amido]-2,6-benzenedicarboxylic acid diiodide] | >3.3
2 | C[n+]1cccc2cc(NC(=O)c3cccc(C(=O)Nc4cc5ccccc5[n+](C)c4)n3)ccc21.[I-].[I-] [Example 9, 2-[(1-methylquinolinio-6-yl)amido]-6-[(1-methylquinolinio-3-yl)amido]-2,6-pyridinedicarboxylic acid iodide] | 150
3 | C[n+]1cc(NC(=O)c2cccc(C(=O)Nc3cc4ccccc4[n+](C)c3)n2)cc2ccccc21.[I-].[I-] [Example 11, bis[(1-methylquinolinio-3-yl)amido]-2,6-pyridinedicarboxylic acid diiodide] | 116
4 | C[n+]1cccc2cc(NC(=O)c3ccnc(C(=O)Nc4ccc5c(ccc[n+]5C)c4)c3)ccc21.[I-].[I-] [Example 8, bis[(1-methylquinolin-6-yl)amido]-2,4-pyridinedicarboxylic acid diiodide] | >3.3
5 | Cc1cc(=N)c2cc(NC(=O)c3cccc(C(=O)Nc4ccc5c(ccc[n+]5C)c4)n3)ccc2[nH]1.[I-] [Example 6, 2-[(1-methylquinolinio-6-yl)amido]-6-[(4-aminoquinaldinio-6-yl)amido]-2,6-pyridinedicarboxylic acid iodide] | 10
6 | C[n+]1cccc2cc(NC(=O)c3cccc(C(=O)NCC[N+]4(C)CCCCC4)n3)ccc21.[I-].[I-] [Example 12, 2-[(1-methylquinolinio-6-yl)amido]-6-[2(-1-methylpiperidinio-1-yl)ethylamido]-2,6-pyridinedicarboxylic acid diiodide] | >66
7 | Cc1ccc2cc(NC(=O)c3cccc(C(=O)Nc4ccc5c(ccc(C)[n+]5C)c4)n3)ccc2[n+]1C.[I-].[I-] [Example 5, bis[(1-methylquinaldinio-6-yl)amido]-2,6-pyridinedicarboxylic acid diiodide] | 35
8 | C[n+]1cccc2cc(NC(=O)c3cccc(C(=O)Nc4cccc5c4ccc[n+]5C)n3)ccc21.[I-].[I-] [Example 10, 2-[(1-methylquinolinio-6-yl)amido]-6-[(1-methylquinolinio-5-yl)amido]-2,6-pyridinedicarboxylic acid iodide] | >10
9 | Cc1cc(N(C)C)c2cc(NC(=O)c3cccc(C(=O)Nc4ccc5c(ccc[n+]5C)c4)n3)ccc2[n+]1C.[I-].[I-] [Example 2, 2-[(1-methylquinolinio-6-yl)amido]-6-[(4-dimethylamino-1-methylquinaldinio-6-yl)amido]-2,6-pyridinedicarboxylic acid diiodide] | 70
10 | C[n+]1cccc2cc(NC(=O)c3cncc(C(=O)Nc4ccc5c(ccc[n+]5C)c4)n3)ccc21.[I-].[I-] [Example 3, bis[(1-methylquinolinio-6-yl)amido]-2,6-pyrazinedicarboxylic acid diiodide] | 40
11 | C[n+]1cccc2cc(NC(=O)c3cccc(C(=O)Nc4ccc5c(ccc[n+]5C)c4)n3)ccc21.[I-].[I-] [Example 1, bis[(1-methylquinolinio-6-yl)amido]-2,6-pyridinedicarboxylic acid diiodide] | 33
12 | C[n+]1cccc2cc(NC(=O)c3cccc(C(=O)Nc4ccc5c(ccc[n+]5C)c4)c3)ccc21.[I-].[I-] [Example 4, bis[(1-methylquinolinio-6-yl)amido]-1,3-benzenedicarboxylic acid diiodide] | >10
